US20060079453A1, “Hla binding peptides and their uses” (priority 2002, published 2006)
Where two headings read alike, the source gives them in different places.

What was measured:
Assay in all cases: biochemical
Assay type in all cases: binding
[1] = target: HLA-B*4001 (Homo sapiens, UniProt P01889, A65T/A93T/A95T/D138N/D98Y/E176V/E69K/N87E/Q56L/Q94N/R180L/S121R/S35A/S48T/T167S/V36M/W171L/Y33H/Y91S); conditions: B*4001
[2] = target: HLA-B*4002 (Homo sapiens, UniProt P01889, A65T/A93T/A95T/D138N/D201E/D98Y/E176V/E204Q/E69K/K202T/N87E/Q56L/Q94N/R180L/S48T/Y33H/Y91S)
[3] = target: HLA-B*4501 (Homo sapiens, UniProt P01889, A329T/A65T/A93T/A95T/C349S/D138N/D201E/D98Y/E176V/E187L/E204Q/E69K/H137Y/K202T/L119W/N87E/Q56L/Q94N/R155S/R180D/S121R/S35A/S48T/V127L/V306I/V36M/W191S/Y140L/Y33H/Y91S)
[4] = target: HLA-B*4402 (Homo sapiens, UniProt P01889, A223V/A65T/A93T/A95T/D201E/D98Y/E176V/E187L/E204Q/E69K/G107R/H137Y/K202T/L105A/L119I/N104T/N87E/Q56L/Q94N/R106L/R155S/R180D/S101N/S121R/S35A/S48T/T118I/V36M/W191S/Y140D/Y91S); conditions: B*4402

Molecule	IC50 [1] [µM]	IC50 ([2]; B*4002) [µM]	further results
CC(C)C[C@H](NC(=O)[C@H](Cc1ccc(O)cc1)NC(=O)[C@H](CCC(=O)O)NC(=O)[C@H](CCC(=O)O)NC(=O)[C@H](C)N)C(=O)N[C@H](C(=O)N1CCC[C@H]1C(=O)N[C@@H](CCC(N)=O)C(=O)N[C@@H](CCC(N)=O)C(=O)NCC(=O)O)C(C)C	66.7	24.4	
CC(C)C[C@H](NC(=O)[C@H](CC(N)=O)NC(=O)[C@H](CCC(=O)O)NC(=O)[C@H](C)N)C(=O)N[C@@H](Cc1c[nH]c2ccccc12)C(=O)N[C@@H](CC(N)=O)C(=O)N[C@H](C(=O)N[C@H](C(=O)N[C@@H](Cc1ccc(O)cc1)C(=O)O)C(C)C)[C@@H](C)O			IC50 [3]: 0.257 µM
CC(C)C[C@H](NC(=O)[C@H](CC(N)=O)NC(=O)[C@H](CCC(=O)O)NC(=O)[C@H](C)N)C(=O)N[C@@H](Cc1c[nH]c2ccccc12)C(=O)N[C@H](C(=O)N[C@@H](Cc1ccccc1)C(=O)N[C@H](C(=O)N[C@@H](Cc1ccc(O)cc1)C(=O)O)C(C)C)C(C)C			IC50 [3]: 0.237 µM
CC(C)C[C@H](NC(=O)[C@H](CC(N)=O)NC(=O)[C@H](CCC(=O)O)NC(=O)[C@H](C)N)C(=O)N[C@@H](Cc1c[nH]c2ccccc12)C(=O)N[C@H](C(=O)N[C@H](C(=O)N[C@@H](Cc1ccccc1)C(=O)N[C@@H](Cc1ccc(O)cc1)C(=O)O)[C@@H](C)O)C(C)C			IC50 [3]: 0.347 µM
CC(C)C[C@H](NC(=O)[C@@H](NC(=O)[C@H](CCC(=O)O)NC(=O)[C@H](C)N)C(C)C)C(=O)N[C@@H](Cc1c[nH]c2ccccc12)C(=O)N[C@H](C(=O)N[C@H](C(=O)N[C@H](C(=O)N[C@@H](Cc1ccc(O)cc1)C(=O)O)C(C)C)[C@@H](C)O)C(C)C			IC50 [3]: 1.24 µM
C[C@H](NC(=O)[C@H](Cc1c[nH]cn1)NC(=O)[C@H](Cc1ccc(O)cc1)NC(=O)[C@H](CCC(=O)O)NC(=O)[C@@H](NC(=O)[C@H](CCC(=O)O)NC(=O)[C@@H](N)CC(=O)O)[C@@H](C)O)C(=O)N[C@@H](CC(=O)O)C(=O)NCC(=O)O	> 11.9	> 65.4	IC50 [4]: > 24.4 µM
CC(C)[C@H](NC(=O)[C@H](CCCNC(=N)N)NC(=O)[C@H](Cc1ccccc1)NC(=O)[C@H](CCC(N)=O)NC(=O)CNC(=O)[C@@H](NC(=O)[C@H](C)NC(=O)[C@H](CCC(=O)O)NC(=O)[C@@H](N)CCC(=O)O)[C@@H](C)O)C(=O)N[C@@H](Cc1ccc(O)cc1)C(=O)O	> 33.3	56	IC50 [4]: 0.029 µM
CC(C)C[C@H](NC(=O)[C@@H]1CCCN1C(=O)[C@H](CO)NC(=O)[C@H](CCCNC(=N)N)NC(=O)[C@@H]1CCCN1C(=O)[C@H](C)NC(=O)[C@H](CCC(=O)O)NC(=O)[C@H](CCC(=O)O)NC(=O)[C@@H](N)CCC(=O)O)C(=O)O		2.88	IC50 [4]: 0.342 µM
CC(C)C[C@H](NC(=O)[C@@H]1CCCN1C(=O)[C@H](CO)NC(=O)[C@H](CCCNC(=N)N)NC(=O)[C@@H]1CCCN1C(=O)[C@H](C)NC(=O)[C@H](CCC(=O)O)NC(=O)[C@H](CCC(=O)O)NC(=O)[C@@H](N)CCC(=O)O)C(=O)N[C@@H](C)C(=O)O	49.5	38.9	
CC(C)C[C@H](NC(=O)CNC(=O)[C@H](CC(C)C)NC(=O)[C@H](C)NC(=O)[C@H](CCC(=O)O)NC(=O)CNC(=O)[C@H](CCCNC(=N)N)NC(=O)[C@H](C)NC(=O)[C@H](CCC(=O)O)NC(=O)[C@H](CC(C)C)NC(=O)CNC(=O)[C@H](CCC(=O)O)NC(=O)[C@@H](N)CCC(=O)O)C(=O)O	1.77	5.14	
C[C@H](NC(=O)[C@@H](NC(=O)[C@H](CCC(N)=O)NC(=O)[C@H](CCC(N)=O)NC(=O)[C@H](CCC(=O)O)NC(=O)[C@@H](N)CCC(=O)O)[C@@H](C)O)C(=O)N[C@@H](CO)C(=O)N[C@@H](CO)C(=O)N[C@@H](CO)C(=O)N[C@@H](CO)C(=O)N[C@H](C(=O)O)[C@@H](C)O	4.04	41.2	
CC[C@H](C)[C@H](NC(=O)[C@H](CCC(N)=O)NC(=O)[C@H](CCCNC(=N)N)NC(=O)[C@H](CC(N)=O)NC(=O)CNC(=O)[C@H](CC(=O)O)NC(=O)[C@@H](NC(=O)[C@H](CCCNC(=N)N)NC(=O)[C@H](CCC(=O)O)NC(=O)CN)C(C)C)C(=O)O		0.369	IC50 [4]: 3.9 µM
CC[C@H](C)[C@H](NC(=O)[C@@H](NC(=O)[C@H](CCC(N)=O)NC(=O)[C@H](CCCNC(=N)N)NC(=O)[C@H](CC(N)=O)NC(=O)CNC(=O)[C@H](CC(=O)O)NC(=O)[C@@H](NC(=O)[C@H](CCCNC(=N)N)NC(=O)[C@H](CCC(=O)O)NC(=O)CN)C(C)C)[C@@H](C)CC)C(=O)O			IC50 ([3]; B*4501): 27.1 µM
N=C(N)NCCC[C@H](NC(=O)[C@H](CCC(=O)O)NC(=O)[C@@H](N)Cc1c[nH]cn1)C(=O)N[C@@H](CS)C(=O)N[C@@H](CO)C(=O)N[C@@H](CC(=O)O)C(=O)N[C@@H](CO)C(=O)N[C@@H](CC(=O)O)C(=O)NCC(=O)O	2.37	38.6	IC50 [4]: 19.3 µM
CC[C@H](C)[C@H](N)C(=O)N[C@@H](CCC(=O)O)C(=O)NCC(=O)N[C@@H](CC(=O)O)C(=O)N[C@@H](CS)C(=O)N[C@@H](C)C(=O)N1CCC[C@H]1C(=O)N[C@@H](CCC(=O)O)C(=O)N[C@@H](CCC(=O)O)C(=O)N[C@@H](CCCCN)C(=O)N[C@H](C(=O)O)[C@@H](C)CC	27.8	32.1	
CC(C)C[C@H](NC(=O)[C@H](CC(N)=O)NC(=O)CNC(=O)[C@H](CO)NC(=O)[C@H](CO)NC(=O)[C@H](CC(=O)O)NC(=O)[C@H](CCC(=O)O)NC(=O)[C@@H](N)CC(C)C)C(=O)O		0.362	IC50 [4]: 42.8 µM
CC(C)[C@H](NC(=O)[C@H](CCCNC(=N)N)NC(=O)[C@H](Cc1ccccc1)NC(=O)[C@H](CCC(N)=O)NC(=O)CNC(=O)[C@@H](NC(=O)[C@H](C)NC(=O)[C@H](CCC(=O)O)NC(=O)[C@H](CCC(=O)O)NC(=O)[C@@H](N)CC(N)=O)[C@@H](C)O)C(=O)O	29.1	22.7	
CC(C)C[C@H](NC(=O)[C@@H]1CCCN1C(=O)[C@H](CCC(=O)O)NC(=O)[C@@H](NC(=O)[C@H](CC(C)C)NC(=O)[C@H](CCC(=O)O)NC(=O)[C@@H](NC(=O)[C@H](CCC(=O)O)NC(=O)[C@@H](N)CCC(N)=O)[C@@H](C)O)C(C)C)C(=O)O	0.062	0.085	
CC(C)C[C@H](NC(=O)[C@H](Cc1ccc(O)cc1)NC(=O)[C@H](CCC(=O)O)NC(=O)[C@@H]1CCCN1C(=O)[C@H](CC(N)=O)NC(=O)[C@H](CCC(=O)O)NC(=O)[C@@H](N)C(C)C)C(=O)N[C@H](C(=O)N1CCC[C@H]1C(=O)N[C@@H](CCC(N)=O)C(=O)NCC(=O)O)[C@@H](C)O	56.4	42.6	
CC(C)C[C@H](NC(=O)[C@@H]1CCCN1C(=O)[C@H](CCC(=O)O)NC(=O)[C@@H](N)C(C)C)C(=O)N[C@H](C(=O)N1CCC[C@H]1C(=O)N[C@@H](CO)C(=O)NCC(=O)N[C@@H](C)C(=O)O)[C@@H](C)O	> 9.64	0.011	
CC(C)C[C@H](NC(=O)[C@H](Cc1ccc(O)cc1)NC(=O)[C@H](CCC(=O)O)NC(=O)[C@@H](N)C(C)C)C(=O)N[C@@H](CC(=O)O)C(=O)N[C@@H](CC(=O)O)C(=O)N[C@@H](CCCNC(=N)N)C(=O)N[C@@H](CC(N)=O)C(=O)N[C@H](C(=O)O)[C@@H](C)O	36.8	35.9	
CC(C)C[C@H](NC(=O)[C@H](C)NC(=O)[C@H](CCCNC(=N)N)NC(=O)[C@@H]1CCCN1C(=O)CNC(=O)[C@H](Cc1c[nH]c2ccccc12)NC(=O)[C@H](CC(C)C)NC(=O)[C@H](Cc1ccccc1)NC(=O)[C@H](CCC(=O)O)NC(=O)[C@@H](N)Cc1ccc(O)cc1)C(=O)O [YEFLWGPRAL]		0.00097	
DECVGEGLACHQL			IC50 ([2]; read-out: B*4002): 3.67 µM
